The values that follow come from patent publication US6197760A (priority 2000, dated 2001).

Structures are written as SMILES.

In one data set the test system is mammary tumor 16/C. The data set is described as follows: Evaluation against mammary tumor 16/C (FIGURE). It is filed as in vivo, murine. The following applies: results shown in the figure.
Another data set concerns P388 leukemia. The data set is described as follows: Evaluation against i.p. implanted P388 leukemia (Table 3). It is filed as in vivo, murine. The following applies: IP; Q1DX1 (1); 100 mg/kg.
Data set [1] relates to MCF-7 mammary tumor xenograft. The data set is described as follows: Response of s.c. implanted MCF-7 mammary tumor xenograft (Table 5). As to conditions: doses equal to or less than the LD20, 5-day treatment schedule. It is filed as in vivo, human. A general note: A xenograft is tissue or cells of one species grown in another, often human tumour cells in immunodeficient mice.

For another data set, the system named is Lewis lung carcinoma. The data set is described as follows: Response of s.c. implanted Lewis lung carcinoma (Table 2). The following applies: i.p.; for Log kill total (Log10 cell kill): calculated from T C value/(3.32 T4).
In data set [2] the test system is experimental leukemias and solid tumors. The data set is described as follows: Activity against experimental leukemias and solid tumors, overall comparison. It is filed as in vivo. As to conditions: mice and rats; as illustrated in Tables 1 and 2.
Setting [3] is: day 2, Q5 min × 7, 30 mg/kg/dose.

Consider `CS(=O)(=O)OCCNP(=O)(O)NCCOS(C)(=O)=O`, for which the “tumor response / comparative activity vs. 16/C” value with mammary tumor 16/C is on record as “none of which caused tumor regression”. Besides, in the data set on P388 leukemia, the “45-Day Surv/Total” value was 0/5, the “% ILS” value was “+64%”, the “Approx. Net Log10 Change In Tumor Burden at End of Rx” value is reported as -4.8 Log10 and the “Median Day of Death” value worked out at 18.0 days. Besides, the “Days Delay (T-C)” value in data set [1] was 4.7 days.
As for `NP(=O)(O)N(CCCl)CCCl`, the “Highest non-toxic dosage (MTD)” value in the data set with Lewis lung carcinoma (day 2, Q5 min × 7) worked out at 30 mg kg^-1 /dose. In the data set on Lewis lung carcinoma (setting [3]), the “% ILS (increase in life span, excluding survivors)” value is 17%; the Tumour-free survivors is reported as 0/10; the “Log kill total (Log10 cell kill)” value was 1.5 log10. In addition, the “Highest non-toxic dosage (MTD)” value in the data set on Lewis lung carcinoma (day 2, single dose) amounted to 200 mg kg^-1 /dose. In the data set with Lewis lung carcinoma (day 2, single dose at MTD), the “% ILS (increase in life span, excluding survivors)” value was 15%; the Tumour-free survivors is 0/10; the “Log kill total (Log10 cell kill)” value is listed as 1.2 log10. For the same molecule, the “comparative therapeutic efficacy against experimental leukemias and solid tumors” value in data set [2] was “inferior to IPM against experimental solid tumors”.
